# Reference: ChEMBL document CHEMBL1127699, “Inhibitors of acyl-CoA:cholesterol acyltransferase. 1. Synthesis and hypocholesterolemic activity of dibenz[b,e]oxepin-11-carboxanilides” (J Med Chem, 1994)
# pIC50: −log10 of the molar value.
# Molecular target: T1, Acyl-CoA:cholesterol acyltransferase (Oryctolagus cuniculus, UniProt Q95214)
# T1 sequence (Q95214 whole entry): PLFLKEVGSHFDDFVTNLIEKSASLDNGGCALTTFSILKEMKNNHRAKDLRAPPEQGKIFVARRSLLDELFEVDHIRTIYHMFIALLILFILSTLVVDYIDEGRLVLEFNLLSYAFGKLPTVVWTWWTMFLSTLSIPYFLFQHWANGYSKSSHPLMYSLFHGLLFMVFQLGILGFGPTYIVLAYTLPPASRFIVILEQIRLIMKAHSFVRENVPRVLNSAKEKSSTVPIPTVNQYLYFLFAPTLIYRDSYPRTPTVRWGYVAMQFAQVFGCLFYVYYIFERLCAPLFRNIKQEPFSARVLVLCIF
# Test: In vitro inhibitory activity against acyl coenzyme A:cholesterol acyltransferase in liver microsomes isolated from cholesterol-fed rabbits
# Set-up: species or system Microsome
smiles,measurement,value
CCCCCCCN(Cc1ccc(CC(C)(C)C)cc1)C(=O)Nc1ccc(F)cc1F [CL-277082],pIC50,6.49
